Data as given in patent publication US8722670B2, “Selective NR2B antagonists” (Bristol-Myers Squibb Company, priority 2011, dated 2014).

Chains of the proteins cited; added tags and fusions are not shown. Residues count along the entry.
UniProt Q13224, 27-1484 limits assumed: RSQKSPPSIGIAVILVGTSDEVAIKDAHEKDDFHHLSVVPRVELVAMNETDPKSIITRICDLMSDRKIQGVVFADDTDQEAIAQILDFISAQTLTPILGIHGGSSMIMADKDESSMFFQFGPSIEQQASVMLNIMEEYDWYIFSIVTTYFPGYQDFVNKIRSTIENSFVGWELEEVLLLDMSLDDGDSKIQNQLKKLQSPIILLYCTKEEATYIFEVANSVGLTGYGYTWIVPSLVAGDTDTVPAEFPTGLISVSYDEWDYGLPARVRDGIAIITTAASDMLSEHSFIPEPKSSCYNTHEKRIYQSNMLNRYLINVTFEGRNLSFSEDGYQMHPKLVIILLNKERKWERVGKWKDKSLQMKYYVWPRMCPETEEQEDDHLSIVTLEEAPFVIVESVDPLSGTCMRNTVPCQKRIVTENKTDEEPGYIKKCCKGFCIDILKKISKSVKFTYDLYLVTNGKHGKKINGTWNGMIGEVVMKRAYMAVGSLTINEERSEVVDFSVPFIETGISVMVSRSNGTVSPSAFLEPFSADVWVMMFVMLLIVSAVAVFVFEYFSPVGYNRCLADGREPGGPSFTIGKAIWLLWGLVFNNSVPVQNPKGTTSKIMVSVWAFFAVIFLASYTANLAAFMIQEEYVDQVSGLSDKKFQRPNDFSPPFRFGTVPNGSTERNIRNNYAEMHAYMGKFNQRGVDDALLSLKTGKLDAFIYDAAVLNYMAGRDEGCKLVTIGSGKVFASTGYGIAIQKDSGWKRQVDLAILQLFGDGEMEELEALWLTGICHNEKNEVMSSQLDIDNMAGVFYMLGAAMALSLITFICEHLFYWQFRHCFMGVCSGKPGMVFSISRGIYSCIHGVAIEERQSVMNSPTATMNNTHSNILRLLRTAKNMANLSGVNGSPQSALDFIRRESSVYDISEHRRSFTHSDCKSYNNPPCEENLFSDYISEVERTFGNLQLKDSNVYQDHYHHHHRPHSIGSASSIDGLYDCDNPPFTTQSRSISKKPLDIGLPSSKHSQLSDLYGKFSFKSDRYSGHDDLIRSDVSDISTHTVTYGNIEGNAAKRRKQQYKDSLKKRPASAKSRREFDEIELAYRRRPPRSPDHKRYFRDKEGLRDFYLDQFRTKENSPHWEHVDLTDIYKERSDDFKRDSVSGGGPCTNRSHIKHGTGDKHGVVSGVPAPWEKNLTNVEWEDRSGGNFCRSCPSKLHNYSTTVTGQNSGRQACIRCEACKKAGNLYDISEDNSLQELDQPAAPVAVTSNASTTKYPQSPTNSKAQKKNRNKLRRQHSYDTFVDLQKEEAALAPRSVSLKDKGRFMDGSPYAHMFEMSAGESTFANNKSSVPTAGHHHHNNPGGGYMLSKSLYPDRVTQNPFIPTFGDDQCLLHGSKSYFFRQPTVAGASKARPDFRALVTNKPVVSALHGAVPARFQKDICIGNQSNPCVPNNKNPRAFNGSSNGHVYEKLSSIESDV

Molecular target: hNR2B (Homo sapiens, UniProt Q13224)
Assay: Electrophysiology NMDA receptor experiments: two electrode voltage-clamp in Xenopus laevis oocytes, hNR2B IC50
[1] = read-out: Activity, hNR2B activity class, 50 μM glutamate, 30 μM glycine
[2] = read-out: hNR2B IC50, voltage clamp -40 mV, 50 μM glutamate, 30 μM glycine

| IC50 [1] [µM] | IC50 [2] [µM] | SMILES |
| --- | --- | --- |
| 0.201 to 1 | – | Cc1ccc(Nc2nnc(COc3ccc4[nH]c(=O)ccc4c3)o2)cc1C |
| 0.201 to 1 | – | O=c1ccc2cc(OCc3nnc(NCc4ccc5c(c4)OCCO5)o3)ccc2[nH]1 |
| < 0.2 | – | COc1ccc(CNc2nnc(COc3ccc4[nH]c(=O)ccc4c3)o2)cc1 |
| < 0.2 | – | CC(Oc1ccc2[nH]ncc2c1)c1nc(Nc2ccc(OC(F)F)c(Cl)c2)no1 (single isomer, unassigned) [176] |
| 0.201 to 1 | – | CC(Oc1ccc2[nH]c(=O)ccc2c1)c1nc(Nc2ccc(Cl)c(F)c2)no1 (racemic) |
| 0.201 to 1 | 0.328 | O=c1ccc2cc(OCc3nnc(NCc4ccc(F)cc4)o3)ccc2[nH]1 |
| 1 to 10 | – | CC(Oc1ccc2[nH]ncc2c1)c1nc(Nc2ccc(OC(F)F)c(Cl)c2)no1 (single isomer, unassigned) [177] |
| 1 to 10 | – | CC(Oc1ccc2[nH]ncc2c1)c1nc(Nc2ccc(Cl)c(Cl)c2)no1 (single isomer, unassigned) [172] |
| 1 to 10 | – | COc1ccc(Nc2noc(C(C)Oc3ccc4[nH]c(=O)ccc4c3)n2)cc1Cl (stereo not shown) |
| 0.201 to 1 | – | O=C1Cc2cc(OCc3nnc(Nc4ccc(C(F)(F)F)cc4)o3)ccc2N1 |
| 0.201 to 1 | – | Clc1ccc(Nc2nnc(COc3ccc4[nH]ncc4c3)o2)cc1 |
| 0.201 to 1 | – | Cc1ccc(Nc2noc(C(C)Oc3ccc4[nH]c(=O)ccc4c3)n2)cc1F (racemic) |
| 0.201 to 1 | – | CC(Oc1ccc2[nH]ncc2c1)c1nc(Nc2ccc(Cl)c(Cl)c2)no1 (single isomer, unassigned) [174] |
| < 0.2 | – | O=c1ccc2cc(OCc3nnc(NCc4ccc(F)c(F)c4)o3)ccc2[nH]1 |
| 1 to 10 | 1.01 | O=c1ccc2cc(OCc3nnc(Nc4ccc5c(c4)OCCO5)o3)ccc2[nH]1 |
| 1 to 10 | – | CC(C)(C)c1ccc(CNc2nnc(COc3ccc4[nH]c(=O)ccc4c3)o2)cc1 |
| > 10 | – | N#Cc1ccc(Nc2nnc(COc3ccc4[nH]c(=O)ccc4c3)o2)cc1 |
| < 0.2 | – | O=c1ccc2cc(C3CC3c3nc(Nc4ccc(OC(F)F)c(Cl)c4)no3)ccc2[nH]1 (stereo not shown) |
| 1 to 10 | 1.74 | O=c1ccc2cc(OCc3nnc(Nc4ccc5c(c4)OCO5)o3)ccc2[nH]1 |
| 0.201 to 1 | 0.345 | CC(Oc1ccc2[nH]ncc2c1)c1nc(Nc2ccc(OC(F)F)c(Cl)c2)no1 (single isomer, unassigned) [173] |
| 1 to 10 | – | O=c1ccc2cc(OCc3nnc(Nc4ccc(C(F)(F)F)nc4)o3)ccc2[nH]1 |
| 1 to 10 | – | O=c1ccc2cc(OCc3nnc(NCc4ccccc4)o3)ccc2[nH]1 |
| 1 to 10 | – | Cc1cc(Nc2noc(C(C)Oc3ccc4[nH]ncc4c3)n2)ccc1OC(F)F (stereo not shown) |
| > 10 | – | Cc1ccc(Nc2noc(CCc3ccc4c(c3)C(C)(C)OC(=O)N4)n2)cc1F |

| IC50 [1] [µM] | IC50 [2] [µM] | SMILES |
| --- | --- | --- |
| 0.201 to 1 | – | CC(C)Oc1ccc(Nc2nnc(COc3ccc4[nH]c(=O)ccc4c3)o2)cc1 |
| < 0.2 | – | COc1ccc(Nc2nnc(COc3ccc4[nH]c(=O)ccc4c3)o2)cc1Cl |
| 1 to 10 | – | CC(C)(C)c1ccc(Nc2nnc(COc3ccc4[nH]c(=O)ccc4c3)o2)cc1 |
| 0.201 to 1 | – | O=c1ccc2cc(OCc3nnc(Nc4ccc(F)c(F)c4)o3)ccc2[nH]1 |
| 1 to 10 | – | CC1(C)Cc2cc(OCc3nnc(Nc4ccc(C(F)(F)F)cc4)o3)ccc2NC1=O |
| 1 to 10 | – | N#Cc1ccc(CNc2nnc(COc3ccc4[nH]c(=O)ccc4c3)o2)cc1 |
| 1 to 10 | – | COc1ccc(Nc2nnc(COc3ccc4[nH]c(=O)ccc4c3)o2)cc1 |
| < 0.2 | – | O=c1ccc2cc(OCc3nnc(Nc4ccc(OC(F)F)c(F)c4)o3)ccc2[nH]1 |
| 1 to 10 | 3.45 | O=C1CCc2cc(OCc3nnc(Nc4ccc(Cl)c(Cl)c4)o3)cc(Cl)c2N1 |
| 1 to 10 | – | CC(Oc1ccc2[nH]ncc2c1)c1nc(Nc2ccc(Cl)c(Cl)c2)no1 (single isomer, unassigned) [175] |
| > 10 | – | Cc1ccccc1Nc1nnc(COc2ccc3[nH]c(=O)ccc3c2)o1 |
| < 0.2 | – | O=c1ccc2cc(OCc3nnc(Nc4ccc(C(F)(F)F)c(F)c4)o3)ccc2[nH]1 |
| > 10 | – | CC(Oc1ccc2[nH]c(=O)ccc2c1)c1nc(Nc2cc(Cl)cc(Cl)c2)no1 (racemic) |
| 1 to 10 | – | CC(Oc1ccc2[nH]c(=O)ccc2c1)c1nc(Nc2ccc(Cl)cc2)no1 (stereo not shown) |
| 0.201 to 1 | – | CC(Oc1ccc2[nH]c(=O)ccc2c1)c1nc(Nc2ccc(Cl)c(Cl)c2)no1 (stereo not shown) |
| > 10 | – | O=c1ccc2cc(OCc3nc(Nc4cccc(Cl)c4Cl)no3)ccc2[nH]1 |
| > 10 | – | Fc1cc(Nc2noc(CCCc3ccc4cn[nH]c4c3)n2)ccc1Cl |
| 1 to 10 | – | FC(F)Oc1ccc(Nc2noc(CCNc3ncccn3)n2)cc1Cl |
| 1 to 10 | – | O=c1ccc2cc(OCc3nnc(NCc4ccc(C(F)(F)F)c(Cl)c4)o3)ccc2[nH]1 |
| > 10 | – | FC(F)(F)c1n[nH]c2ccc(CCc3nc(Nc4ccc(Cl)c(Cl)c4)no3)cc12 |
| < 0.2 | – | CC(Oc1ccc2[nH]c(=O)ccc2c1)c1nnc(Nc2ccc(OC(F)F)cc2)o1 (racemic) |
| 1 to 10 | – | Cc1ccccc1CNc1nnc(COc2ccc3[nH]c(=O)ccc3c2)o1 |
| 1 to 10 | – | Clc1ccc(Nc2noc(CCNc3ncccn3)n2)cc1Cl |

Like-named read-outs stand apart in the source and are kept apart here.
